Laboratory results taken from patent publication EP1263503B1, “USE OF CYANOQUINOLINES FOR TREATING OR […] POLYPS” (Wyeth Holdings Corporation, priority 2000, dated 2001).
Where two headings read alike, the source gives them in different places.

Test system: intestinal polyps (adenomas)
Conditions: polyps assessed at day 61

CCOc1cc2ncc(C#N)c(Nc3ccc(F)c(Cl)c3)c2cc1NC(=O)C=CCN(C)C [Example 399, 4-Dimethylamino-but-2-enoic acid [4-(3-chloro-4-fluoro-phenylamino)-3-cyano-7-ethoxy-quinolin-6-yl]-amide]
Mean # Polyps ± S.D. (Group I: 5 mg/kg/day in chow ad libitum for 60 days, control 32.6 ± 19.1): 15.6 ± 6.0
Mean # Polyps ± S.D. (Group II: 150 mg/kg/day in chow ad libitum for 60 days, control 19.5 ± 14.1): 2.6 ± 1.6
